Source: US20200138854A1, “Method of Detecting and Quantifying Bile Acid from Saliva” (Ironwood Pharmaceuticals, Inc., priority 2017, published 2020)

Experiment: Frozen (−20° C.) short-term stability in cholestyramine-treated human saliva
Conditions: individual values, run 33

Compound: C[C@H](CCC(=O)O)[C@H]1CC[C@H]2[C@@H]3[C@H](O)C[C@@H]4C[C@H](O)CC[C@]4(C)[C@H]3C[C@H](O)[C@]12C [Cholic Acid, Cholic acid]
- Concentration after frozen (−20° C.) storage (Storage period 1 Day, QC-High, nominal 80.0 ng/mL): 76.1 ng/mL and 77.8 ng/mL and 69.8 ng/mL and 75.0 ng/mL
- Concentration after frozen (−20° C.) storage (Storage period 1 Day, QC-LLOQ, nominal 0.500 ng/mL): 0.466 ng/mL and 0.497 ng/mL and 0.486 ng/mL and 0.533 ng/mL
- Concentration after frozen (−20° C.) storage (Storage period 1 Day, QC-Mid, nominal 8.00 ng/mL): 7.09 ng/mL and 7.67 ng/mL and 7.70 ng/mL and 7.64 ng/mL
- Concentration after frozen (−20° C.) storage (Storage period 2 Days, QC-High, nominal 80.0 ng/mL): 74.6 ng/mL and 77.9 ng/mL and 72.3 ng/mL and 75.5 ng/mL
- Concentration after frozen (−20° C.) storage (Storage period 2 Days, QC-LLOQ, nominal 0.500 ng/mL): 0.535 ng/mL and 0.561 ng/mL and 0.555 ng/mL and 0.591 ng/mL
- Concentration after frozen (−20° C.) storage (Storage period 2 Days, QC-Mid, nominal 8.00 ng/mL): 7.43 ng/mL and 7.73 ng/mL and 7.80 ng/mL and 7.90 ng/mL

Values joined by “and” are separate entries in the source; they are usually repeats but may differ in a detail not shown here. Identical values can stand only once.
